# Experimental data as given in PubChem BioAssay AID454 (Sanford-Burnham Center for Chemical Genomics, 2006).
# The entries are a selection whose mix differs from that of the whole data set. Activity calls are given as the source filed them.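 Rule for the calls: active = compound among top-ranked inhibitors of TNF-induced VCAM-1 adhesion protein staining, with the hit upheld by image or statistical review; inactive = the rest, including hits rejected on review.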
# Test: inhibitors of TNFa-induced VCAM-1 surface display, cell-based, plate reader, pooled HUVEC, TNFa stimulus (AID 454)
# Conditions: HUVEC TNFa-induced VCAM-1 surface immunofluorescence
row,Structure (SMILES),outcome
1,CP(=O)(Nc1ccccn1)Oc1ccccc1 (stereo not given),inactive
2,CP(=O)(Nc1ccc2c(c1)OCCO2)Oc1ccccc1 (stereo not given),inactive
3,CN(C)CCOC(=O)C(O)(c1ccccc1)C1CCCCC1 (stereo not given),inactive
4,Cc1ccc(C)c(NP(C)(=O)Oc2ccccc2)c1 (stereo not given),inactive
5,CP(=S)(Nn1cnnc1)Oc1ccccc1 (stereo not given),inactive
